According to US12059499B2, “Liposome loading” (PLUMB PHARMACEUTICALS, INC., priority 2015, dated 2024):

Experiment: Liposome leakage, sedimentation method
Assay type: physicochemical
Protocol: Liposome Leakage, Sedimentation Method. Liposome samples were diluted to 3-5 mL and left on an orbital shaker at 22° C. At specific time points, the liposomes were sedimented in a centrifuge at 300×g for 5 minutes and an aliquot of the clear supernatant was analyzed spectrophotometrically for drug and loading base content. After measurement, the solution was returned to the liposome suspension, which was vortexed and returned to the orbital shaker.
Then, 400 microliters of a pyridinium salt solution (prewarmed to 58° C.) were added to the lipid suspension. The mixture was kept at 58° C. for 5 minutes and then 100 microliters of the pyridinium salt solution were added. The mixture was cooled and diluted with 0.99% w/v sodium chloride. […] A total of three washes were performed. Naltrexone solution was then added in 150 mM citrate (pH 7.0) and the mixture was left to load for 48 hours. After loading, residual non-loaded naltrexone and released pyridine were removed by dilution with saline and sedimentation a total of three times. Naltrexone and pyridine content were measured spectroscopically. The samples were subsequently monitored for release of naltrexone using the sedimentation method. Two trials were performed for each condition.

pyridinium sulfate
release of naltrexone in 900 hours: ~5%
